Data on 30 molecules can be found in PubChem BioAssay AID1497 (Sanford-Burnham Center for Chemical Genomics, 2009).

Chains of the proteins cited; added tags and fusions are not shown.
UniProt P05107, whole entry, looked up: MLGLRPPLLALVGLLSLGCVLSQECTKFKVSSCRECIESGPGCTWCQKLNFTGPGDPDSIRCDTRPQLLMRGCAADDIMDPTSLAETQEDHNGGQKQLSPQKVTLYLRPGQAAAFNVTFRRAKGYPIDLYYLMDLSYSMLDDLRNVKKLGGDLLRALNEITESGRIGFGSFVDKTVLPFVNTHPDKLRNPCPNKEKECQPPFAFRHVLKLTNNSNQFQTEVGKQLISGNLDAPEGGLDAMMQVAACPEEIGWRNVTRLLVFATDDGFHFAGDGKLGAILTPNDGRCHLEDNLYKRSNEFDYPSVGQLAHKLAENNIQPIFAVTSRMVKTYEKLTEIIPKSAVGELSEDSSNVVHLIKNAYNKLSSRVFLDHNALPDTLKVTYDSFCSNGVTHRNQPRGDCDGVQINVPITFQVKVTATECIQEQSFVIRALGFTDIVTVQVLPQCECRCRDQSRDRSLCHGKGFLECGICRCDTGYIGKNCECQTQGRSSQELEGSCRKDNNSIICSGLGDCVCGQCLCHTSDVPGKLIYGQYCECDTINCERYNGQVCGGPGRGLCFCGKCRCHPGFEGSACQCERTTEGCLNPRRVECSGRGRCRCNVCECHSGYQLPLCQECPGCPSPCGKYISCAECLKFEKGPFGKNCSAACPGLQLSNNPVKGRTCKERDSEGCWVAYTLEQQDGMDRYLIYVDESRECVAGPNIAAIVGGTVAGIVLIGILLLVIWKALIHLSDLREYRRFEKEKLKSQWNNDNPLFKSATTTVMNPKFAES

This is a selection; strong and weak results do not stand in their true shares. Activity calls are given as the source filed them.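 Rule for the calls: active = primary inhibition of 50% or more at 10 µM, then 40% or more on retest; inactive = the rest.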

The experiment deals with Integrin beta-2 (Homo sapiens) + Integrin alpha-M (Homo sapiens) (UniProt P05107+P11215). Kind of experiment: antagonists of integrin CD11b/CD18-fibrinogen binding – K562 cells, luminescence, primary screen (AID 1497). To be noted: K562 CD11b/CD18 adhesion to fibrinogen, ATPlite luminescence; at 10 µM; stronger effect = higher value; Mn2+ added to activate the integrin.
For the molecule `O=[N+]([O-])c1ccc2c(c1)nnn2O`, the inhibition is inactive: 7.3%. In the case of `CCOP1(=S)c2c(C)nn(CCC#N)c2N=C(c2ccc(F)cc2)N1C` (stereo not given) it was inactive: -7.7%; in that of `CCOP1(=S)c2c(C)nn(CCC#N)c2N=C(c2ccccc2F)N1C` (stereo not given), inactive: -16.8%; in that of `Cc1ccc(NCCc2c([N+](=O)[O-])cc([N+](=O)[O-])cc2[N+](=O)[O-])cc1`, inactive: -4.3%. In the case of `Cc1cccc(OCC(=O)OC2CN3CCC2CC3)c1` (stereo not given) it was inactive: -2.4%; in that of `O=P1(Nc2ccccn2)COc2ccccc2OC1`, inactive: 5.7%. To `Clc1n[nH]nc1-c1nn[nH][15n]1` belongs inactive: -2.9%; to `O=P1(Nc2ncccn2)COc2ccccc2OC1`, inactive: 28.4%; to `Cc1ccc(OCC(=O)OC2CN3CCC2CC3)cc1` (stereo not given), inactive: -8.7%.

For `O=P1(Nc2ccc(Br)cn2)COc2ccccc2OC1`, the inhibition was inactive: 11.7%. To `Cc1nn(-c2ccccc2)c2c1P(=O)(N1CCOCC1)N(C)C(c1ccccc1)=N2` (stereo not given) belongs inactive: -42.6%. To `Cc1cc(SC(NC(=O)c2ccccc2)C(Cl)(Cl)Cl)nc(C(C)C)n1` (stereo not given) belongs inactive: 12.3%; to `COP1(=S)c2c(C)nn(CCC#N)c2N=C(c2ccc(F)cc2)N1C` (stereo not given), inactive: -9.2%. In the case of `O=C(COc1ccccc1)OC1CN2CCC1CC2` (stereo not given) it was inactive: -6.2%; in that of `O=C(OC1CN2CCC1CC2)C12CC3CC(CC(C3)C1)C2` (stereo not given), inactive: 10%. For `Cc1c2c(nc3ccccc13)SC(C(Cl)Cl)C2` (stereo not given), the inhibition was inactive: 2.8%. To `CCN(CC)C(=S)SC(NC=O)C(Cl)(Cl)Cl` (stereo not given) belongs inactive: -6.6%; to `Cc1ccc2nc3c(c(C)c2c1)CC(C(Cl)Cl)S3` (stereo not given), inactive: 2.5%. As to `CCN(N=Nc1nonc1N)c1nonc1N`, the inhibition was inactive: -0.3%. To `Cc1cc(SC(NC(=O)c2ccc(F)cc2)C(Cl)(Cl)Cl)ncn1` (stereo not given) belongs inactive: -2.9%; to `CCOP(=O)(Nc1ccccc1)OCC`, inactive: -7.4%; to `Oc1ccccc1CNc1ccccn1`, inactive: -40.4%. To `Cc1c2non([O-])c-2c(C)[n+](=O)[n+]1[O-]` belongs inactive: -1.5%. Take `O=[N+]([O-])c1cccc2n[nH]nc12`: the inhibition was inactive: 17.8%. Take `CCc1nc2c(n1)c1c(non1O)c1c2no[n+]1[O-]`: the inhibition was inactive: 15.2%. In the case of `O=C(OC1CN2CCC1CC2)c1cccc(Cl)c1` (stereo not given) it was inactive: -26.2%; in that of `O=P(Nc1nccs1)(c1ccccc1)c1ccccc1`, inactive: 31.8%; in that of `CC(C)C(=O)NC(Sc1ccccc1)C(Cl)(Cl)Cl` (stereo not given), inactive: -2.9%. In the case of `c1nnnn1CCn1cnnn1` it was inactive: -2.5%. As to `O=P1(Nc2nc3ccc(Cl)cc3s2)COc2ccccc2O1` (stereo not given), the inhibition was inactive: 9.4%.
